These results are taken from ChEMBL document CHEMBL1145777 (J Med Chem, 2003).

Amino acid sequences for entries named in this document (tags omitted). A change or cut given only in a name is not applied to a line headed by its entry.
UniProt P41145: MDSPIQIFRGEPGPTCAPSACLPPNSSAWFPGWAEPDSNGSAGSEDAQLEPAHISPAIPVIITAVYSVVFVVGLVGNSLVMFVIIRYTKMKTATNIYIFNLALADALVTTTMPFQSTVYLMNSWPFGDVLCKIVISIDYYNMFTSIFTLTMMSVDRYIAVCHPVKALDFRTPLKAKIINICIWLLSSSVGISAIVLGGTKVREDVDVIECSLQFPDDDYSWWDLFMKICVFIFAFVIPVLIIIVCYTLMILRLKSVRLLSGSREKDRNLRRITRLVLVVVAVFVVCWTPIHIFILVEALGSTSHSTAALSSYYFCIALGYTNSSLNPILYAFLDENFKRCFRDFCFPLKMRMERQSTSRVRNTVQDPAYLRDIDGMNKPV

This experiment has as its target Kappa-type opioid receptor (Homo sapiens, UniProt P41145). Kind of experiment: Incorporation of [35S]GTP-gamma-S, into CHO membranes expressing human Opioid receptor kappa 1. The format is functional.

The Emax is the greatest response seen or fitted, relative to the assay's reference.

For the compound `CN(C(=O)Cc1ccc(Cl)c(Cl)c1)C1CCC2(CCCO2)CC1N1CCCC1` (stereo unspecified), the Emax came out at 120%.
